US20060024786

How the values were obtained:
[1] = tested on: full length human N-WASP (Myc-N-WASP-TAP)
[2] = tested on: full length human WASP (Myc-WASP-TAP)

## N_GST_tev_Rac1 GTP (bacterial GST tagged Rac1 protein)
[1]
  Barbed ends % of max. (after subtracting baseline): 28%
  Barbed ends, nM (pyrene-actin polymerization assay): 1.9 nM
[2]
  Barbed ends % of max. (after subtracting baseline): 12%
  Barbed ends, nM (pyrene-actin polymerization assay): 1.4 nM
